The text below walks through data of patent US9656962B2, “Ring-contracted morphinans and the use thereof” (Purdue Pharma L.P., priority 2013, dated 2017).

Broadly, the Ki is a measure of affinity in units of concentration, obtained from inhibition or displacement. Higher therefore signals a looser hold on the target. Broadly, the EC50 is the concentration giving half of the maximal effect. A lower EC50 goes with greater potency.

In assay [1] the target is δ-opioid receptor (Homo sapiens (Human), UniProt P41143). Kind of assay: δ-opioid receptor radioligand binding assay ([3H]-Naltrindole). As to conditions: binding affinity. The method, then:
δ-Opioid Receptor Binding Assay Procedures: δ-Opioid Receptor Binding Assay Procedures were conducted as follows. Radioligand dose-displacement assays used 0.3 nM [^3H]-Naltrindole (Perkin Elmer, Shelton, Conn.; 33.0 Ci/mmole) with 5 μg membrane protein (Perkin Elmer, Shelton, Conn.) in a final volume of 500 μl binding buffer (5 mM MgCl2, 5% DMSO, 50 mM Trizma base, pH 7.4). Non-specific binding was determined in the presence of 25 μM unlabeled naloxone. All reactions were performed in 96-deep well polypropylene plates for 1 hour at a temperature of about 25° C. Binding reactions were terminated by rapid filtration onto 96-well Unifilter GF/C filter plates (Perkin Elmer, Shelton, Conn.) presoaked in 0.5% polyethylenimine (Sigma). Harvesting was performed using a 96-well tissue harvester (Perkin Elmer, Shelton, Conn.) followed by five filtration washes with 500 μl ice-cold binding buffer. Filter plates were subsequently dried at 50° C. for 1-2 hours. Fifty μl/well scintillation cocktail (Perkin Elmer, Shelton, Conn.) was added and plates are counted in a Packard Top-Count for 1 min/well.

Assay [2] has as its target T1, μ-opioid receptor (Homo sapiens (Human), UniProt P35372). Kind of assay: μ-opioid receptor [35S]GTPγS functional assay, U-2 OS cells (Table 5). As to conditions: μ GTP. The class given is biochemical. The method, then:
(§1) μ-Opioid Receptor Functional Assay Procedures: [^35S]GTPγS functional assays were conducted using freshly thawed μ-receptor membranes prepared in-house from a cell line expressing recombinant μ opioid receptor in a HEK-293, CHO or U-2 OS cell background, or purchased from a commercial source (Perkin Elmer, Shelton, Conn.; or DiscovRx, Fremont, Calif.). Assay reactions were prepared by sequentially adding the following reagents to binding buffer (100 mM NaCl, 10 mM MgCl2, 20 mM HEPES, pH 7.4) on ice (final concentrations indicated): membrane protein (0.026 mg/mL), saponin ([…]), GDP ([…]) and [^35S]GTPγS (0.20 nM; Perkin Elmer, Shelton, Conn.). The prepared membrane solution (190 μl/well) was transferred to 96-shallow well polypropylene plates containing 10 μl of 20× concentrated stock solutions of the agonist [D-Ala^2, N-methyl-Phe^4 Gly-ol^5]-enkephalin (DAMGO) prepared in dimethyl sulfoxide (DMSO). […] BetaScint scintillation cocktail (Perkin Elmer, Shelton, Conn.) was added (50 μl/well) and plates were counted using a Packard Top-Count for 1 min/well. Data were analyzed using the sigmoidal dose-response curve fitting functions in GraphPad PRISM v. […]
The following TABLE 5 provides results on the activity response of certain Compounds of the Invention at the μ- and κ-opioid receptors determined as described above using U-2 OS cells.
For orientation: GTPγS is a poorly hydrolysed GTP analogue; its binding reports G protein activation.

Assay [3] concerns the target T1, μ-opioid receptor. Description: μ-opioid receptor [35S]GTPγS functional assay, HEK-293 or CHO cells (Table 4). The class given is biochemical. As to conditions: μ GTP, bound given in μM. The method, then: as §1
In TABLE 4, activity response of certain Compounds of the Invention to the μ- and κ-opioid receptors was determined as described above for functional assays using HEK-293 or CHO cells.

Assay [4] addresses T1, μ-opioid receptor. Kind of assay: μ-opioid receptor radioligand binding assay ([3H]-diprenorphine). As to conditions: binding affinity. The method, then: μ-Opioid Receptor Binding Assay Procedures: Radioligand dose-displacement binding assays for μ-opioid receptors used 0.3 nM [^3H]-diprenorphine (Perkin Elmer, Shelton, Conn.), with […] membrane protein/well in a final volume of 500 μl binding buffer (10 mM MgCl2, 1 mM EDTA, 5% DMSO, 50 mM HEPES, pH 7.4). Reactions were carried out in the absence or presence of increasing concentrations of unlabeled naloxone. All reactions were conducted in 96-deep well polypropylene plates for 2 hours at room temperature. Binding reactions were terminated by rapid filtration onto 96-well Unifilter GF/C filter plates (Perkin Elmer, Shelton, Conn.), presoaked in 0.5% polyethylenimine using a 96-well tissue harvester (Perkin Elmer, Shelton, Conn.) followed by performing three filtration washes with 500 μl of ice-cold binding buffer. Filter plates were subsequently dried at 50° C. for 2-3 hours. BetaScint scintillation cocktail (Perkin Elmer, Shelton, Conn.) was added (50 μl/well), and plates were counted using a Packard Top-Count for 1 min/well. The data were analyzed using the one-site competition curve fitting functions in GraphPad PRISM™ v. 3.0 or higher (San Diego, Calif.), or an in-house function for one-site competition curve-fitting.

Consider `N=C(N)NCCNC(=O)[C@@H]1C[C@]23CCN(CC4CC4)[C@H](Cc4ccc(O)cc42)[C@]3(O)C1` [Compound 6, (2R,3aS,4R,9bS)-12-(cyclopropylmethyl)-N-(2-guanidinoethyl)-3a,8-dihydroxy-1,2,3,3a,4,5-hexahydro-4,9b-(epimino-ethano)cyclopenta[a]naphthalene-2-carboxamide], for which the results for the Ki in assay [1] and in assay [4] were 7710 ± 1280 nM and 19.7 ± 4.68 nM, respectively. Further, the EC50 is 16 ± 0.91 nM in assay [2] and more than 20 µM in assay [3].
